Source: PubChem BioAssay AID2435 (The Scripps Research Institute Molecular Screening Center, 2010)
This is a selection; strong and weak results do not stand in their true shares. Calls of active or inactive are those of the source.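 How the source made its calls: active means activation above the mean of all tested compounds plus 3 SD, cutoff set per screening run (cut at about 20% in these data); inactive means the rest.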

By UniProt entry, the sequences of proteins in these tests, tags left out. Where a name states a change or a piece, a line headed by the entry shows the natural chain unless it says otherwise.
UniProt P30559: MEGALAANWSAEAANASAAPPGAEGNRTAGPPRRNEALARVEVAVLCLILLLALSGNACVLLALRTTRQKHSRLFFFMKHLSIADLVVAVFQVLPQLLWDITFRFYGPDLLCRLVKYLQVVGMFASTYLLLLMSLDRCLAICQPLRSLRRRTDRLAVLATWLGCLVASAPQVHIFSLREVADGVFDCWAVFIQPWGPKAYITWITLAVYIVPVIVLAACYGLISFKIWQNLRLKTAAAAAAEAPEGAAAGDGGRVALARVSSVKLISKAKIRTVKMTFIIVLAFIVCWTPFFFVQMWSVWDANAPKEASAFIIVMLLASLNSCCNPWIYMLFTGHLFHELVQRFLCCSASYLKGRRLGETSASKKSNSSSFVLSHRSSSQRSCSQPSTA

Molecular target: Oxytocin receptor (Homo sapiens) (UniProt P30559)
Experiment: oxytocin receptor activation by calcium flux – fluorescence, CHO-OTR cells, Fluo-8 calcium, primary screen (AID 2435);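 further: peak over basal fluorescence ratio from a 100 s FLIPR kinetic read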
Details: Fluo-8 calcium fluorescence, at 3 µM, active compounds read high, normalized: DMSO 0%, oxytocin 100%

| Compound | activation |
| --- | --- |
| C[N+]1=C2C=CC=CC=C2SC12C([N+](=O)[O-])=CC([N+](=O)[O-])=C[C-]2[N+](=O)[O-] (stereo not given) | inactive: 1.03% |
| Nc1ccc([As](=O)(O)c2ccc(N)cc2)cc1 | inactive: 0.01% |
| CC1CCN(C(=O)Oc2c(Cl)cc(Cl)c3cccnc23)CC1 | inactive: -2.35% |
| CN(C)C(=O)OCCc1n(C)cc[n+]1C | inactive: -0.09% |
| CC(C)=N/N=C(\N)N[N+](=O)[O-] | inactive: 0.96% |
| O=C(Nc1cc([As](=O)(O)O)ccc1O)c1ccccc1 | inactive: 0.77% |
| O=[N+]([O-])c1ncn(CCn2ncnc2[N+](=O)[O-])n1 | inactive: 0.8% |
| CC(C)(C)C(=O)NC(Sc1ccncn1)C(Cl)(Cl)Cl (stereo not given) | inactive: 0.9% |
| O=[N+]([O-])c1cccc(NC2=NCC(CBr)S2)c1 (stereo not given) | inactive: -0.16% |
| O=P(Nc1ccccn1)(c1ccc(Br)cc1)c1ccc(Br)cc1 | inactive: -0.25% |
| CN(C)C1(CNC(=O)c2ccc(Cl)c(S(N)(=O)=O)c2)CCCCC1 | inactive: 1.04% |
| C[C@H]1OP(=O)(Oc2ccccc2)[C@H](O)[C@H](O)[C@H]1N=[N+]=[N-] (stereo not given in full) | inactive: 0.65% |
| O=P(Nc1nc2ccccc2s1)(c1ccccc1)c1ccccc1 | inactive: -0.43% |
| O=[As](O)(c1ccccc1)c1ccc(O)cc1 | inactive: 0.13% |
| O=[N+]([O-])c1ccc(O)c(/C=N/Nc2ccc([N+](=O)[O-])cc2[N+](=O)[O-])c1 | inactive: 8.45% |
| O=[N+]([O-])c1ncn(CCn2cnc([N+](=O)[O-])n2)n1 | inactive: -0.19% |
| CC(=O)NC(SC(=S)N(C)C)C(Cl)(Cl)Cl (stereo not given) | inactive: 1.49% |
| O=C(OC1CN2CCC1CC2)c1cccc(Cl)c1 (stereo not given) | inactive: 1.76% |
| Nc1ccc([As](=O)(O)c2ccc([N+](=O)[O-])cc2)cc1 | inactive: -0.07% |
| C(Cc1nn[nH]n1)Cc1nn[nH]n1 | inactive: 0.59% |
| CC(C)C(=O)NC(Sc1ccccc1)C(Cl)(Cl)Cl (stereo not given) | inactive: -1.57% |
| O=P(Nc1nccs1)(c1ccccc1)c1ccccc1 | inactive: 0.37% |
| c1nnnn1CCn1cnnn1 | inactive: 0.96% |

| Compound | activation |
| --- | --- |
| CCOc1ccc(C2=NCC(CBr)S2)cc1 (stereo not given) | inactive: 0.43% |
| O=P1(Nc2nc3ccc(Cl)cc3s2)COc2ccccc2O1 (stereo not given) | inactive: 0.26% |
| CC(C)(C)C(=O)NC(Sc1ccccc1)C(Cl)(Cl)Cl (stereo not given) | inactive: -2.95% |
| C[C@@H]1C=CCP(=O)(Oc2ccccc2)O1 (stereo not given in full) | inactive: -0.14% |
| C[C@H]1OP(=O)(Oc2ccccc2)C[C@@H]2O[C@@H]21 (stereo not given in full) | inactive: 0.28% |
| Cc1ccccc1CN(C)C(=O)COC(=O)C(O)(c1ccccc1)c1ccccc1 | inactive: 1.03% |
| CC(=O)c1ccc(N2CC2c2ccncc2)cc1 (stereo not given) | inactive: 1.32% |
| CC(=O)Nc1ccc(Oc2c([N+](=O)[O-])cc([N+](=O)[O-])cc2[N+](=O)[O-])cc1 | inactive: -0.4% |
| CC(=O)Nc1ccc([As](=O)(O)O)c(O)c1 | inactive: 0.52% |
| CCOC(=O)NC(Sc1ccccc1)C(Cl)(Cl)Cl (stereo not given) | inactive: -2.31% |
| Cc1ccc(NP(=O)(Oc2cccc(C)c2)Oc2cccc(C)c2)nc1 | inactive: -0.28% |
| c1ccc(-c2nn[nH]n2)c(-c2nn[nH]n2)c1 | inactive: 1.35% |
| CCNC(=S)/N=C(\N)N[N+](=O)[O-] | inactive: 0.8% |
| O=C(NC1CCS(=O)(=O)C1)NP(=S)(Oc1ccccc1)Oc1ccccc1 (stereo not given) | inactive: 0.28% |
| CCC(=O)N1C2C3N(C(=O)CC)C1C1N(C(=O)CC)C(C(N1C(=O)CC)N3C(=O)CC)N2C(=O)CC | inactive: -0.17% |
| O=C(OC1CN2CCC1CC2)c1ccccc1 (stereo not given) | inactive: 0.65% |
| Cc1ccc(OP(=O)(Nc2ccccn2)Oc2ccc(C)cc2)cc1 | inactive: 1.17% |
| CC(=O)NC(SC(=S)N(CC(C)C)CC(C)C)C(Cl)(Cl)Cl (stereo not given) | inactive: -0.08% |
| COC(=O)c1cc2c(s1)N=C(c1ccccc1)N(C)P2(=O)N1CCOCC1 (stereo not given) | inactive: -0.96% |
| CN(C)C(=O)Oc1noc2ccccc12 | inactive: 0.3% |
| Cc1ccccc1OP(=O)(Nc1ccccn1)Oc1ccccc1C | inactive: 0.02% |
| CC(NC(=O)COC(=O)C(O)(c1ccccc1)c1ccccc1)c1ccccc1 (stereo not given) | inactive: 2.71% |
